Measurements reported in patent US20180015141A1.

Target: CD44-IgG1Fc fusion protein (R & D systems) (human) (UniProt P16070)
Assay: competition ELISA, CD44-IgG1Fc coated at 1 µg/mL, rhPRG4 at 5 µg/mL, competitor HMW HA or MMW HA (not a protein), detection with Mab 9G3

percent reduction of binding with excess hyaluronic acid: 50%
Substance: recombinant human proteoglycan 4 (rhPRG4) (from UniProt Q92954 25-1404) (ligand)
